{
  "source": "ChEMBL document CHEMBL1687751",
  "about": "“Atomic force microscopy investigation of the morphology and topography of colistin-heteroresistant Acinetobacter baumannii strains as a function of growth phase and in response to colistin treatment” (Antimicrob Agents Chemother, 2009)",
  "format_in_all_cases": "functional, organism-based",
  "key": {"Acinetobacter baumannii [1]": {"tested_on": "Acinetobacter baumannii", "assay": "Effect on morphological changes in colistin-susceptible Acinetobacter baumannii ATCC 19606 assessed as change in width of cellular dimension at mid-log phase at 0.5 ug/ml after 20 mins by atomic force microscopic analysis"}, "Acinetobacter baumannii [2]": {"tested_on": "Acinetobacter baumannii", "assay": "Effect on morphological changes in colistin-susceptible Acinetobacter baumannii ATCC 19606 assessed as change in average root mean squared surface roughness at mid-log phase at 0.5 ug/ml after 20 mins by atomic force microscopic analysis"}, "Acinetobacter baumannii [3]": {"tested_on": "Acinetobacter baumannii", "assay": "Effect on morphological changes in colistin-susceptible Acinetobacter baumannii ATCC 19606 assessed as change in width of cellular dimension at mid-log phase at 32 ug/ml after 20 mins by atomic force microscopic analysis"}, "Acinetobacter baumannii [4]": {"tested_on": "Acinetobacter baumannii", "assay": "Effect on morphological changes in colistin-susceptible Acinetobacter baumannii ATCC 19606 assessed as change in average root mean squared surface roughness at mid-log phase at 4 ug/ml after 20 mins by atomic force microscopic analysis"}, "Acinetobacter baumannii [5]": {"tested_on": "Acinetobacter baumannii", "assay": "Effect on morphological changes in colistin-susceptible Acinetobacter baumannii ATCC 19606 assessed as change in average root mean squared surface roughness at stationary phase at 32 ug/ml after 20 mins by atomic force microscopic analysis"}, "Acinetobacter baumannii [6]": {"tested_on": "Acinetobacter baumannii", "assay": "Effect on morphological changes in colistin-susceptible Acinetobacter baumannii ATCC 19606 assessed as change in average root mean squared surface roughness at stationary phase at 4 ug/ml after 20 mins by atomic force microscopic analysis"}, "Acinetobacter baumannii [7]": {"tested_on": "Acinetobacter baumannii", "assay": "Effect on morphological changes in colistin-susceptible Acinetobacter baumannii ATCC 19606 assessed as change in length of cellular dimension at mid-log phase at 0.5 ug/ml after 20 mins by atomic force microscopic analysis"}, "Acinetobacter baumannii [8]": {"tested_on": "Acinetobacter baumannii", "assay": "Effect on morphological changes in colistin-susceptible Acinetobacter baumannii ATCC 19606 assessed as change in width of cellular dimension at mid-log phase at 4 ug/ml after 20 mins by atomic force microscopic analysis"}, "Acinetobacter baumannii [9]": {"tested_on": "Acinetobacter baumannii", "assay": "Effect on morphological changes in colistin-susceptible Acinetobacter baumannii ATCC 19606 assessed as change in length of cellular dimension at mid-log phase at 4 ug/ml after 20 mins by atomic force microscopic analysis"}, "Acinetobacter baumannii [10]": {"tested_on": "Acinetobacter baumannii", "assay": "Effect on morphological changes in colistin-susceptible Acinetobacter baumannii ATCC 19606 assessed as change in length of cellular dimension at mid-log phase at 32 ug/ml after 20 mins by atomic force microscopic analysis"}, "Acinetobacter baumannii [11]": {"tested_on": "Acinetobacter baumannii", "assay": "Effect on morphological changes in colistin-susceptible Acinetobacter baumannii ATCC 19606 assessed as change in average root mean squared surface roughness at stationary phase at 0.5 ug/ml after 20 mins by atomic force microscopic analysis"}, "Acinetobacter baumannii [12]": {"tested_on": "Acinetobacter baumannii", "assay": "Effect on morphological changes in colistin-susceptible Acinetobacter baumannii ATCC 19606 assessed as change in average root mean squared surface roughness at mid-log phase at 32 ug/ml after 20 mins by atomic force microscopic analysis"}},
  "data": [
    {"sequence": "COLISTIN SULFATE", "values": [
      {"measurement": "Activity", "setting": "Acinetobacter baumannii [1]", "value": 1.03, "unit": "µM"},
      {"measurement": "Activity", "setting": "Acinetobacter baumannii [2]", "value": 8.64, "unit": "nm"},
      {"measurement": "Activity", "setting": "Acinetobacter baumannii [3]", "value": 0.97, "unit": "µM"},
      {"measurement": "Activity", "setting": "Acinetobacter baumannii [4]", "value": 13.5, "unit": "nm"},
      {"measurement": "Activity", "setting": "Acinetobacter baumannii [5]", "value": 15.3, "unit": "nm"},
      {"measurement": "Activity", "setting": "Acinetobacter baumannii [6]", "value": 16.7, "unit": "nm"},
      {"measurement": "Activity", "setting": "Acinetobacter baumannii [7]", "value": 1.63, "unit": "µM"},
      {"measurement": "Activity", "setting": "Acinetobacter baumannii [8]", "value": 0.94, "unit": "µM"},
      {"measurement": "Activity", "setting": "Acinetobacter baumannii [9]", "value": 1.44, "unit": "µM"},
      {"measurement": "Activity", "setting": "Acinetobacter baumannii [10]", "value": 1.59, "unit": "µM"},
      {"measurement": "Activity", "setting": "Acinetobacter baumannii [11]", "value": 7.81, "unit": "nm"},
      {"measurement": "Activity", "setting": "Acinetobacter baumannii [12]", "value": 19.8, "unit": "nm"}
    ]}
  ]
}
